## Antibody variant affinities, Ab-14 heavy chain, assay B

The target is the same throughout: PDVDLGDISGINAS, from the HR2 region of SARS-CoV-2 spike.

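Phage display of a naive human antibody library on the peptide gave the parent. Designed CDR sequences, proposed from the first random library and measured here. Group labels follow the data file (Ctrl: baseline library sampled from a position-specific scoring matrix, with some repeated check sequences; Rand: our label for a block that the file lists under HC and that is probably the random mutants of the ten best first-round binders; En: ensemble of fine-tuned language models; GP: Gaussian process model; GPLM: also part of the Gaussian process libraries; HC: hill climbing; Gen: genetic algorithm; Gibbs: Gibbs sampling; a sequence that several methods proposed may carry one label only). In AlphaSeq, yeast of one mating type display the scFv and yeast of the other type display the target. The frequency of each diploid, read from paired DNA barcodes, reflects how well the two displayed proteins bind. A regression on co-assayed BCL2-family reference pairs converts the normalised counts of each replicate to an apparent Kd. The assay was run in six technical replicates.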

The variants keep the light chain, the linker and the frameworks of Ab-14 (scFv order VH, the linker GGGGSGGGGSGGGGS, VL).
VH: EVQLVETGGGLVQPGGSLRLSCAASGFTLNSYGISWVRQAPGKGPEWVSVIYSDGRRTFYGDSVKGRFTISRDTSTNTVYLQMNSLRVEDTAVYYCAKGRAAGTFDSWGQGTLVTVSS
VL: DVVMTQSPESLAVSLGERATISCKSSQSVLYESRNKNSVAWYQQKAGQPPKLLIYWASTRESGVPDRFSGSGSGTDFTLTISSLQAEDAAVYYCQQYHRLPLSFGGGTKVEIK

The parent's heavy chain CDRs are GFTLNSYGIS, VIYSDGRRTFYGDSVK, GRAAGTFDS; each variant's own CDRs replace them letter for letter. Variants here have at most six changes. The Kd shown is the geometric mean over detected replicates; a lower Kd is a better binder. Where no diploid with the target was found in any replicate, the entry reads "nd": below detection, most likely a poor binder, though not proof of it. The range of this assay differs from that of the first round, and the authors advise against merging the two. A sequence that the file lists under several names has all its replicates pooled. The authors averaged sequences with at least three values out of six and counted those with two or fewer as poor binders. Nonspecific signal, from three strains lacking the peptide, appeared in 1% of pairings of all heavy chain designs, centred on 120 nM (5% of these signals below 7.0 nM); values are not corrected for it. For each scFv, signals with the empty controls are counted beside the result.

Variant GFTLSSYGIS | VIYSDGRRTFYGDSVK | GDNAGTFDS [Ctrl] showed 11 nM (3 of 6 replicates; controls 0 of 18). Variant GFTLNSYGIS | VIYSDGRRTFYGDSVK | GRIAGTFSS [Ctrl] showed 76 nM (2 of 6 replicates; controls 1 of 18). Variant GFDLNEYGIS | VIYADGRRTFYSDSVK | GQAAGTFDS [En_HC] showed 370 pM (6 of 6 replicates; controls 0 of 18). Variant GFVLNSYGIS | VIYADGRRTFYGDSVK | GNAAGTFDS [GP_Gen] gave 3.1 nM (5 of 6 replicates; controls 0 of 18). Variant GFSLNEYGIS | VIYSDGRRTFYGDSVK | GRIAGTFDS [GPLM_Gen] showed 260 pM (6 of 6 replicates; controls 0 of 18). With GFTLNSYGIS | VIYSDGWRTFYSDSVK | GKAAGTFDS [GPLM_Gen] the result was 74 nM (5 of 6 replicates; controls 1 of 18). Variant GFSLNSYGIS | VIYSDGRRTFYIDSVK | GNAAGTFDS [GPLM_Gen] gave 1.1 nM (6 of 6 replicates; controls 0 of 18).

For GFTLNSYGRS | VIYADGRRTFYQDSVK | GRAAGTFDM [Ctrl], the assay gave nd (0 of 6 replicates; controls 1 of 18). Variant GFTLNSYGIS | VIYSDGRRTFYGDSVK | GRAGGTFIS [Ctrl] gave nd (0 of 6 replicates; controls 0 of 18). Variant GFDLNSYGIS | VIYSDGRRTFYQDSVK | GQAAGTFDD [GP_Gen] gave 6.2 nM (6 of 6 replicates; controls 2 of 18). For GFTLNSYGVS | VIYADGRRTFYDDSVK | GRAAGTFDS [Ctrl], the assay gave 810 pM (6 of 6 replicates; controls 0 of 18). For GFWLNQYGIS | VIYSDGRRTAYQDSVK | GRAAGTFDS [GP_HC], the assay gave 11 nM (6 of 6 replicates; controls 0 of 18). With GFELNSYGIS | VIYADGRRTFYGDSVK | GRAAGTFDM [GP_Gen] the result was 920 pM (3 of 6 replicates; controls 0 of 18). For GFTLESYGIS | VIYSDGRRTFYDDSVK | GQCAGTFDS [GP_HC], the assay gave 220 nM (2 of 6 replicates; controls 1 of 18).

With GFNLNSYGIS | VIYSDGLRTFIGDSVK | GRAAGTFDS [Ctrl] the result was nd (0 of 6 replicates; controls 0 of 18). Variant GFTLNSYGIS | VIYSDGRRTFYDDSVK | GQVAGTFDD [GP_HC] gave 4.7 nM (6 of 6 replicates; controls 0 of 18). For GFTLNSYGIS | VIYADGRRTFYGDSVK | GEAAGTFKY [GP_HC], the assay gave 1.8 nM (5 of 6 replicates; controls 0 of 18). For GRTLNSYGIS | VIYSDGRRTFYGDSVK | GQAAGTFDS [Ctrl], the assay gave nd (0 of 6 replicates; controls 0 of 18). Variant GFTLNSPGIS | VIYSDGRRTFYSDSVK | GRAGGKFDS [Rand] gave nd (0 of 6 replicates; controls 0 of 18). Variant GFDLNSYGIS | VIYSDGRRTFYGDSVK | GRTAGTFDR [GPLM_Gibbs] gave 19 nM (5 of 6 replicates; controls 0 of 18). For GFTLNSYGIS | VIYSDGRRTFYADSVK | GHAAGTFDS [GPLM_Gen], the assay gave 8.1 nM (6 of 6 replicates; controls 0 of 18).

For GPTLNSYGHS | VMYADGRRTFYGDSVK | GRAAGTNKS [Rand], the assay gave 3.9 nM (1 of 6 replicates; controls 1 of 18). Variant GFTLNSYGIS | VIYSDGRRTFYDDSVK | GKLAGTFDD [GP_HC] gave 60 nM (3 of 6 replicates; controls 0 of 18). With GFDLNEYGIS | VIYSDGRRTAYGDSVK | GRAAGTFDS [Ctrl] the result was 490 pM (6 of 6 replicates; controls 0 of 18). Variant GFTLNEYGIS | VIYSDGRRTFYQDSVK | GRAAVTFDV [GP_HC] showed 6.9 nM (6 of 6 replicates; controls 0 of 18). For GFNLNSYGIS | VIYSDGRRTFYQDSVK | GQAAGTFDS [GPLM_HC], the assay gave 5.4 nM (6 of 6 replicates; controls 1 of 18). With GETLNSYGIS | VIYADGRRTFYSDSVK | GQAAGTFDS [GP_HC] the result was 76 nM (6 of 6 replicates; controls 0 of 18). With GFELNSYGIS | VIYSDGRRTFYGDSVK | GRAAGTFDS [Ctrl+GP_HC] the result was 6.4 nM (12 of 12 replicates; controls 0 of 36).

Variant GFTLEDYGIS | VIYSDGRRTFYSDSVK | GRAAGTFDS [Ctrl] showed 780 pM (6 of 6 replicates; controls 0 of 18). For GFTLNDYGIS | VIYSDGRRTFYSDSVK | GRAAGIFDS [GPLM_HC], the assay gave 30 nM (1 of 6 replicates; controls 0 of 18). Variant GFSLNEYGIS | VIYSDGRRTFYHDSVK | GNAAGTFDS [GP_Gen] gave 3.4 nM (6 of 6 replicates; controls 0 of 18). Variant GFTLNSYGIS | VIYSDGRRTFYGDSVK | GKEAGTFDN [GPLM_Gibbs] showed 12 nM (6 of 6 replicates; controls 1 of 18). For QFALNSYGIS | VIYSDGRRTFYGDSVK | GRAAGTFDS [Ctrl], the assay gave 76 nM (3 of 6 replicates; controls 0 of 18). Variant GFDLNSYGIS | VIYSDGKRTFYGDSVK | GRLAGTFDS [GP_Gen] showed 710 pM (6 of 6 replicates; controls 0 of 18). Variant GFILNQYGIS | VIYSDGRRTFYSDSVK | TRAAGFFDS [Rand] showed nd (0 of 6 replicates; controls 0 of 18).

Variant GFTLNDYGIS | VIYSDGRRTFYADAVK | GRAAGTFRS [GP_HC] showed nd (0 of 6 replicates; controls 0 of 18). For GFDLNSYGIS | VIYSDGRRTFYGDQVK | GRAAGHFNS [GP_HC], the assay gave nd (0 of 6 replicates; controls 0 of 18). For GFTLDSYGIS | VIKSDGRRTFYGDSVK | GRYAGTAYS [Rand], the assay gave nd (0 of 6 replicates; controls 0 of 18). Variant GFSLNSYGIS | VIYSDGRRTFYSDSVK | GQAAGTFDS [GPLM_Gen] showed 81 nM (1 of 6 replicates; controls 0 of 18). For GFTLNSYGIS | VIYSDGRRTFYHDSVK | GQAAGTFES [Ctrl], the assay gave nd (0 of 6 replicates; controls 0 of 18). Variant GFTLNDYGIS | VIYSNGRRTQYIDSVK | GRAAGTFDS [Rand] gave nd (0 of 6 replicates; controls 0 of 18). Variant GFTLNSYGIS | VIYADGRRTFYGDSVK | GRAAGTFDS [Ctrl+GPLM_Gen] showed 1.9 nM (36 of 36 replicates; controls 3 of 108).

Variant DFTLSSYGIS | VIYSDGRRTFYGDSVK | GKAAGTFDS [Ctrl] gave 12 nM (6 of 6 replicates; controls 0 of 18). With GFTLGSYGIS | VIYSDGRRTFYGDSVK | GRAAGTFDS [Ctrl] the result was 140 nM (1 of 6 replicates; controls 0 of 18). With GFTLNEYGIS | VIYSDGRRTFYGDSVK | GKTAGTFDL [GP_Gibbs] the result was 2.5 nM (6 of 6 replicates; controls 1 of 18). Variant GFTLNSYGIS | VIYSDGRRTFYGDSVK | GRWAGTFDS [Ctrl] gave 78 nM (1 of 6 replicates; controls 0 of 18). With GFTLNDYGIS | VIYSDGRRTFYDDSVK | GRAAGTFFS [GP_HC] the result was nd (0 of 6 replicates; controls 0 of 18).

Reference: Li et al. 2023, doi:10.1038/s41467-023-39022-2. File: FLAb, binding data.